Experimental findings from publication PMC8807600, “Catalytic trajectory of a dimeric nonribosomal peptide synthetase subunit with an inserted epimerase domain” (Nature Communications, 2022) are described below.

By UniProt entry, the sequences of proteins in these tests, tags left out. Where a name states a change or a piece, a line headed by the entry shows the natural chain unless it says otherwise.
UniProt G3XCV2: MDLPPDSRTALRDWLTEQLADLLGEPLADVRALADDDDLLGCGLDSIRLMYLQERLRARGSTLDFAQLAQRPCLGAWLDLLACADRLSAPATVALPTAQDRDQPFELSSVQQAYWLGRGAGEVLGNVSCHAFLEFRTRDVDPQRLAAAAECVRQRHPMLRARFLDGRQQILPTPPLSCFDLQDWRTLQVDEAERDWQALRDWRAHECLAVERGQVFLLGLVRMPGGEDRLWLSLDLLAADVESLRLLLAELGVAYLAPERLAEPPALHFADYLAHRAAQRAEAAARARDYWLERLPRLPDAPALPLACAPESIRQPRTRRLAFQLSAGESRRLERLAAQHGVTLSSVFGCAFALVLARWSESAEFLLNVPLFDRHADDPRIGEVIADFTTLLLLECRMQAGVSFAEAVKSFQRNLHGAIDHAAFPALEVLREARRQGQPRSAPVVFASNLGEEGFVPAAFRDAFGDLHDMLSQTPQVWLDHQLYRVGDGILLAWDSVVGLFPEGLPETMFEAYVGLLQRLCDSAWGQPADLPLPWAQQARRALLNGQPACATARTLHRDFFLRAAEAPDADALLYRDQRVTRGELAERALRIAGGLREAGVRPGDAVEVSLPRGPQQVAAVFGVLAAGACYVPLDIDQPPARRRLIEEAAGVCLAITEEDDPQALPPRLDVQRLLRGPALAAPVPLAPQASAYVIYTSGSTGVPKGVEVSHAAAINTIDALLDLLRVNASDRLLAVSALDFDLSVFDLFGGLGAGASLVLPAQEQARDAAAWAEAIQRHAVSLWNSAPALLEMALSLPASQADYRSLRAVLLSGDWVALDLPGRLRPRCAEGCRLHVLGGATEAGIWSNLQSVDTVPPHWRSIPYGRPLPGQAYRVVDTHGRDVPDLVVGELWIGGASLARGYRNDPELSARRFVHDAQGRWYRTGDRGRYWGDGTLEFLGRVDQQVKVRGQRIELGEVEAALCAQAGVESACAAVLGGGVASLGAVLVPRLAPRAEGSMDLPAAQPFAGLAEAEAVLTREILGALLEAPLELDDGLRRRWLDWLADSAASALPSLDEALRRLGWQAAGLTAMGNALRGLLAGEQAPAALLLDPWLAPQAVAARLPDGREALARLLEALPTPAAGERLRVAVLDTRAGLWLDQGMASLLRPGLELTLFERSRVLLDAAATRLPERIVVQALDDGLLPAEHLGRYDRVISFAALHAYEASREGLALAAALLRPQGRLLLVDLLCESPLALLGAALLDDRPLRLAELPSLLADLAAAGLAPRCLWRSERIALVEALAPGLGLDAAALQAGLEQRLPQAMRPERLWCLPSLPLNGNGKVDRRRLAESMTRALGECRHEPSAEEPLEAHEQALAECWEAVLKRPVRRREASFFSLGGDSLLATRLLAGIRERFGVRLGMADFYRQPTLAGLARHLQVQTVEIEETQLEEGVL

This test concerns the target PchE (Pseudomonas aeruginosa, UniProt G3XCV2). Particulars: A domain, both chains of conformation 2 (3.78 A).

For `Nc1ncnc2c1ncn2[C@@H]1O[C@H](COP(=O)(O)O)[C@@H](O)[C@H]1O` [AMP], the cryo-EM structure entry is “Both chains have their Asub domain rotated relative to the Acore (complexed with AMP)”.
